# Screening data deposited in PubChem by National Center for Advancing Translational Sciences (NCATS).
# Hits are enriched below; roughly 2.3% of the tested compounds scored in any of these assays.
# GRP78 ERSR act – induces the endoplasmic reticulum stress response in human glioma cells | 420,000 tested, 0.02% active | AID 602332 | U87-MG GRP78 promoter luciferase reporter, 16 h | Potency, µM, inactives show top-dose activation, usual class: activators; also: potency is read from the fitted curve at half-maximal effect; series mostly up to about 76 µM; % of control where 0% means no effect; nearly all actives have a fitted effect of over 35% in size
#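 ERSR induction read as luciferase luminescence (Bright-Glo, 10 min at room temperature) in stably transfected human U87-MG glioma cells exposed to compounds for 16 h, using GRP78 as sensor.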
# Mito fusion act – mitochondrial division inhibition or fusion activation; S. cerevisiae fusion-defective mutant growth rescue, CellTiterGlo 48 h; Potency, µM (doses to about 46.1 µM), for the others: at the highest dose growth rescue (activation), actives largely listed as activators; 320,000 tested, 0.23% active; AID 485298; also: potency is read from the fitted curve at half-maximal effect; % of control where 0% means no effect; nearly all actives have a fitted effect of over 45% in size
#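 S. cerevisiae fusion-defective temperature-sensitive mutants (e.g. fzo1-1, mgm1-5) grown 48 h at 37C in YPEG (ethanol/glycerol non-fermentable) medium with 23 nl compound per well; growth rescue read as CellTiterGlo luminescence.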
# Nrf2 ARE act – activates Nrf2 signaling | AID 624171 | AREc32 ARE-luciferase reporter (MCF7-derived line), luminescence, 24 h | Potency, µM (titrated, usually from 46.1 µM), without a hit: at the highest dose activation, usual class: activators | 410,000 tested, 0.31% active; also: potency is read from the fitted curve at half-maximal effect; % of control where 0% means no effect; nearly all actives have a fitted effect of over 65% in size
#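 Luminescent ARE reporter assay in AREc32_Fluc cells: overnight plating at 37 deg C, 24 hr compound incubation, Steady-Glo added, 30 min RT before reading.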
# miR-21 reporter – miR-21 reporter, rising signal; Potency, µM (titrated, usually from 38.3 µM), without a hit: at the highest dose reporter change, positive = more light; AID 2288; 340,000 tested, under 10 active; HeLa miR-21 FLuc reporter, luciferase, 48 h; active = well fitted rising curve with a large enough effect; inconclusive = small, poorly fitted or top-dose-only effect; inactive = no such curve, though single readings can be large or run the other way;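 note: % of control where 0% means no effect; miR-21 action dims this reporter so a rising signal means less miR-21 action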
#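 Compounds were titrated across several concentrations (up to approximately 40 uM) and incubated 48 hours with HeLa miR-21-FLuc reporter cells (miR-21 target sequence downstream of FLuc, endogenous miR-21). Readout was firefly luciferase luminescence after lytic detection reagent.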
# Nrf2 block – blocks Nrf2 signaling. A549 ARE-Fluc reporter, luciferase luminescence, 18-24 h. Potency, µM (top dose mostly 46 µM), without a hit: at the top dose activity change, negative = inhibition, most hits filed as inhibitors. 360,000 tested, 2.1% active; also: potency is read from the fitted curve at half-maximal effect; % is scaled to controls: 0 for no effect and ±100 for the full control effect; nearly all actives have a fitted effect of over 60% in size
#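 Quantitative HTS in A549 cells stably bearing an antioxidant response element-firefly luciferase construct. Inhibition of Nrf2-driven transcription was scored by luminescence after 18-24 h of compound exposure at 37 °C.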
# A549 tox – kills or reduces viability of A549 cells in Nrf2 counter-screen. A549 ARE-Fluc cells, CellTiter-Fluor viability, 18-24 h. Potency, µM (series often up to 46 µM), without a hit: top-dose activity change, negative = cytotoxicity, actives largely listed as inhibitors. 390,000 tested, 0.16% active. AID 504648; also: potency is read from the fitted curve at half-maximal effect; % is scaled to controls: 0 for no effect and ±100 for the full control effect
#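 A549 ARE-Fluc cells in 5% FBS OPTI-MEM, 5000 cells/well, rested 2 h then exposed to compounds in concentration-response for 18-24 h at 37 °C. Viability by CellTiter-Fluor fluorescence (Ex 405/Em 525) after 30 min; luciferase luminescence (BugLite, 15 min, RT) read afterwards.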
# Active calls of the source: *; ? = inconclusive; . = no result given; ! = not active in a repeat. Calls follow the shape of the dose curve; as a rule, active = well fitted curve in the direction sought with a large enough effect; inconclusive = small, poorly fitted or top-dose-only effect, or another doubt; inactive = no such curve, though single readings can be large; an effect the other way counts as inactive or inconclusive.
No. | molecule | GRP78 ERSR act | Mito fusion act | Nrf2 ARE act | miR-21 reporter | Nrf2 block | A549 tox
1 | CCOc1ccc(Nc2oc(-c3ccco3)nc2C#N)cc1 | -2.8% | 6.7% | 8.5% | -31.7% | -5.0% | -5.2%
2 | COc1ccc(C)cc1NC(=O)C(Sc1nnc(-c2ccncc2)n1-c1ccc(Cl)cc1)c1ccccc1 (stereo not drawn) | -4.1% | 14.0% | 3.8% | ? | 25.9µM* | -0.8%
3 | COc1ccc2[nH]cc(/C=C/c3cc[n+](C)cc3)c2c1 | -4.1% | -3.4% | 5.9% | 22.2% | 10.3µM* | ?
4 | COc1ccc2[nH]cc(C=O)c2c1 | -5.0% | 4.3% | -0.3% | 2.0% | 14.6% | -8.0%
5 | N=C1S/C(=C\c2ccc(-c3cccc(Cl)c3)o2)C(=O)N1c1nccs1 | -2.1% | 8.6% | 8.9% | -1.2% | 8.2µM* | ?
6 | COc1ccc(/C=C2\SC(=N)N(c3nccs3)C2=O)cc1OC | ? | 13.7% | ? | -4.5% | ? | -24.2%
7 | O=C(c1cc2cc(F)ccc2[nH]1)N1CCc2ccccc2C1 | 11.7% | 15.9% | 9.6% | -41.3% | -1.9% | 0.4%
8 | CCN(C(=O)C1CCCN(c2ncnc3c2nc2n3CCCCC2)C1)c1cccc(Cl)c1 (stereo not drawn) | -4.4% | 18.5% | 2.3% | ? | 14.6µM*! | 0.1%
9 | CSc1cccc(NC(=O)C2CCCN(c3ncnc4c3nc3n4CCCCC3)C2)c1 (stereo not drawn) | -5.8% | 20.3% | -0.2% | -0.8% | 18.4µM* | -20.5%
10 | Clc1cccc(N2CCN(c3ncnc4c3nc3n4CCCCC3)CC2)c1 | -5.6% | . | 0.1% | ? | 13µM* | ?

# Single records, as listed above. Order of values: GRP78 ERSR act | Mito fusion act | Nrf2 ARE act | miR-21 reporter | Nrf2 block | A549 tox
# N=C1S/C(=C\c2ccc(-c3cccc(Cl)c3)o2)C(=O)N1c1nccs1 across the screens: -2.1% | 8.6% | 8.9% | -1.2% | 8.2µM* | ?
# COc1ccc2[nH]cc(/C=C/c3cc[n+](C)cc3)c2c1 across the screens: -4.1% | -3.4% | 5.9% | 22.2% | 10.3µM* | ?

# Continued.
No. | molecule | GRP78 ERSR act | Mito fusion act | Nrf2 ARE act | miR-21 reporter | Nrf2 block | A549 tox
11 | O=C(C1CCN(c2ncnc3c2nc2n3CCCCC2)CC1)N1CCN(c2cccc(Cl)c2)CC1 | -5.2% | -21.2% | -1.5% | ? | ? | 1.3%
12 | O=C(CSc1nc2[nH]c(=O)cc(O)c2s1)Nc1ccc(Cl)c(C(F)(F)F)c1 | -1.3% | -2.7% | -0.8% | . | 6.7% | -0.7%
13 | CN(C)c1cccc(C(=O)OCC(=O)Nc2ccccc2Sc2ccccc2)c1 | -4.7% | -0.5% | -0.4% | -5.4% | 11.0% | 5.2%
14 | Cc1ccc(-c2nnc(Nc3cccc(Br)c3)c3ccccc23)cc1S(=O)(=O)N1CCN(C)CC1 | -3.6% | . | 2.7% | 23.6% | . | ?
15 | COc1ccc(NC2CCCN(C(=O)CCn3cccn3)C2)cc1 (stereo not drawn) | -1.0% | 1.8% | -0.6% | -2.1% | -9.2% | 1.4%
16 | CCN(CC)C(=O)Cn1c(=O)n(Cc2ccccc2Cl)c2c1c(=O)n(C)c(=O)n2C | -3.0% | . | 3.0% | . | -2.6% | 2.0%
17 | CC(C)Cc1ccc(CN2CCCC(NC(=O)c3ccnn3C)C2)cc1 (stereo not drawn) | -6.1% | -5.6% | 0.2% | 19.0% | 13µM* | -18.9%
18 | C/C(=C1/SC(N2CCOCC2)=NC1=O)c1ccc(Br)cc1 | 3.6% | -0.4% | 0.1% | -3.1% | . | 7.3%
19 | CCCN(CCC)CCNC(=O)c1cc2c(-c3ccc(Cl)cc3)nn(C)c2s1 | -1.4% | -31.8% | 4.4% | -1.0% | 23.1µM*! | 23.1µM*
20 | COc1ccc(Br)cc1C(=O)CCC(=O)OCC(=O)Nc1cc(C(N)=O)cc(C(N)=O)c1 | -3.0% | 6.5% | 5.0% | . | -11.9% | -14.1%

# An excerpt from above, limited to GRP78 ERSR act, Nrf2 block and Mito fusion act:
entry | canonical_smiles | GRP78 ERSR act | Nrf2 block | Mito fusion act
18 | C/C(=C1/SC(N2CCOCC2)=NC1=O)c1ccc(Br)cc1 | 3.6% | . | -0.4%
19 | CCCN(CCC)CCNC(=O)c1cc2c(-c3ccc(Cl)cc3)nn(C)c2s1 | -1.4% | 23.1µM*! | -31.8%

# Further structures follow.
No. | molecule | GRP78 ERSR act | Mito fusion act | Nrf2 ARE act | miR-21 reporter | Nrf2 block | A549 tox
21 | Cn1c(=O)c2[nH]c(CCCCCCCc3nc4ccccc4[nH]3)nc2n(C)c1=O | -0.2% | . | 10.5% | . | 16.4µM* | ?
22 | Cn1c(=O)c2[nH]c(CCCCCc3nc4ccccc4[nH]3)nc2n(C)c1=O | -3.8% | . | 0.3% | . | 0.1% | 3.0%
23 | Cn1c(=O)c2[nH]c(COc3ccc(C(C)(C)C)cc3)nc2n(C)c1=O | -1.5% | -0.6% | -0.7% | 4.5% | 11.6µM* | -18.8%
24 | CCn1c(SCC(=O)N/N=C/C=C\c2ccco2)nc2ccccc21 | -1.9% | 2.2% | 3.55µM* | -2.6% | ? | -0.3%
25 | Cn1c(SCC(=O)N/N=C/C=C\c2ccco2)nc2ccccc21 | -10.9% | -2.8% | ? | -14.1% | -9.2% | -2.0%
